Reference: paper PMC4902571

Molecular target: EGFR transmembrane helix fused to mCherry at the N-terminus and to EGFP at the C-terminus (human)
Test: single-molecule stepwise photobleaching (TIRF microscopy); EGFP fusions on the membrane of live Xenopus oocytes, without EGF; ~1 to ~5 molecules per um^2; room temperature; 20 Hz; 3% two-step baseline (Claudin-16) subtracted

extent of dimerization (fraction of two-step photobleaching events): 13%
stoichiometry N: 2
Substance: EGFR transmembrane helix fused to mCherry at the N-terminus and to EGFP at the C-terminus (domain or fragment)
